1 molecule from ChEMBL document CHEMBL5500409, “Discovery of 5-(Piperidin-4-yl)-1,2,4-oxadiazole Derivatives as a New Class of Human Caseinolytic Protease P Agonists for the Treatment of Hepatocellular Carcinoma” (J Med Chem, 2024) can be followed below.

Molecules are shown by their SMILES.

A short description of data set [1]: in vivo. The conditions noted are these: rat, iv, 5 mg/kg.
Data set [2] concerns HCCLM3. Briefly: animal or person. As to conditions: Mus musculus, HCCLM3, 672 h, read-out: TGI.
Data set [3] is described as follows: in vivo. The conditions noted are these: rat, po, 15 mg/kg.
The nature of data set [4]: in vivo. The conditions noted are these: Balb/c, mouse, ip, 400 mg/kg.
Data set [5] is described as follows: in vivo. The conditions noted are these: rat, iv, 5 mg/kg. This is another data set of the same source.
The subject of data set [6] is HCCLM3. Briefly: cells. As to conditions: Homo sapiens, HCCLM3, 72 h, read-out: INH.
Data set [7] is described as follows: in vivo. As to conditions: rat, po, 15 mg/kg. This is another data set of the same source.
The subject of data set [8] is HCCLM3. Kind of data set: animal or person. The conditions noted are these: Mus musculus, HCCLM3, 672 h, read-out: TGI. The source holds these as a separate data set.
Data set [9] in a line: in vivo. As to conditions: rat, po, 15 mg/kg. This is another data set of the same source.
Data set [10] in a line: in vivo. The conditions noted are these: rat, iv, 5 mg/kg. This is another data set of the same source.
Data set [11] in a line: in vivo. The conditions noted are these: rat, iv, 5 mg/kg. This is another data set of the same source.
Data set [12] in a line: in vivo. The conditions noted are these: Balb/c, mouse, ip.
Data set [13] relates to HCCLM3. Briefly: animal or person. As to conditions: Mus musculus, HCCLM3, 672 h, read-out: TGI. The source holds these as a separate data set.
Data set [14] relates to HCCLM3. Briefly: animal or person. As to conditions: Mus musculus, HCCLM3, 672 h, read-out: TGI. The source holds these as a separate data set.
Data set [15] is described as follows: in vivo. As to conditions: rat, po, 15 mg/kg. This is another data set of the same source.
Data set [16] can be described thus: in vivo. As to conditions: rat, iv, 5 mg/kg. The source holds these as a separate data set.
Data set [17] can be described thus: in vivo. The conditions noted are these: rat, po, 15 mg/kg. This is another data set of the same source.
Data set [18] can be described thus: in vivo. As to conditions: rat, po, 15 mg/kg. This is another data set of the same source.

What is called Cmax is the peak of the concentration-time curve. Broadly, the MRT last is a mean duration of stay, worked out from the concentration-time curve. The term mortality denotes the percentage killed. Low values mean a weak lethal effect, high ones a strong lethal effect. The term half-life denotes the time needed for the level to fall by half in the phase considered. Higher therefore signals slow loss. A word on the bioavailability: it is the share of a dose that reaches the circulation, judged against a reference dose that is usually intravenous. As a reminder, the AUC(0-t) is exposure summed from dosing to a finite time, without extrapolation to infinity. Higher therefore signals high exposure. For orientation: clearance means a measure of how efficiently the substance is removed, as volume per time. Read a high clearance as a high capacity for elimination. In general, LD50 refers to the dose expected to kill half of the subjects tested. Read a low LD50 as a more toxic substance. As a reminder, the Tmax is the time at which the peak concentration occurs. `N#Cc1cccc(CN2CCC(c3nc(Cc4ccc(F)c(Cl)c4)no3)CC2)c1`: the Cmax in data set [1] worked out at 2100 ng/mL; in [9], 397 ng/mL. The inhibition in vivo at 80 mg/kg in data set [2] was found to be 77%. Besides, the MRT last was found to be 9.1 h in data set [3] and 4.5 h in [16]. Moreover, the mortality at 72 h in [4] was 50%. For the same molecule, the half-life in [5] was 4.2 h; in data set [17], 6 h. The inhibition at 10 µM in data set [6] was found to be 93.2%. The molecule further gave a bioavailability in data set [7] of 29.8%. For the same molecule, in data set [8], the inhibition in vivo at 40 mg/kg came out at 85.2%. In addition, the AUC(0-t) in [10] came to 3420 ng·h/mL; in [15], 3050 ng·h/mL. In [11], the clearance was 26.7 mL/min/kg. The same molecule came in with an LD50 at 360 h in data set [12] of 400 mg/kg. In addition, the inhibition in vivo at 10 mg/kg in data set [13] was 60.9%. Further, the inhibition in vivo at 20 mg/kg in data set [14] turned out to be 61.9%. Further, the Tmax in [18] was 1.4 h.
